Test system: PSA
Experiment: Assay of PSA with dextran scaffold chemiluminescent-labeled sbp with and without SSIA
Format: biochemical, human
Settings: PSA 51.0 ng/mL, ascorbic acid as SSIA
Experimental: In this example, one member of a specific binding pair of monoclonal antibodies for PSA is conjugated to a dextran molecule coupled with AK1, as described in Example 10 below, except the antibody is thiolated and covalently-linked to AK11-labeled and maleimide-activated dextran. A second monoclonal PSA antibody was conjugated to HRP, as described above and provided in an aqueous solution at either 0.5 μg/ml, 0.1 μg/ml or 0.03 μg/ml as indicated in the tables below. The assays were performed by placing 25 μl of sample in each of two reaction vessels. To the sample in the first reaction vessel, 25 μl of Ab1 solution, 25 μl of water, 25 μl of Ab2 solution was added and incubated for 15 minutes. In a second reaction vessel 25 μl of Ab1 solution, Ascorbic acid (Sigma, St. Louis, Mo.) in deionized water at the concentrations of 200 or 500 μM (as indicated in the table below), and 25 μl of Ab2 solution were added to 25 μl of sample and incubated for 15 minutes. […] Each sample was analyzed according to the above assay method in triplicate. […] A ratio of signal to noise (S/S0) was calculated at each concentration value. […] Samples of known concentration were prepared as described previously. Each sample was analyzed according to the above method in triplicate.

SMILES: O=C1O[C@H]([C@@H](O)CO)C(O)=C1O [Ascorbic Acid]
- S/S0, w/SSIA: 206.2

Source: patent publication US9029092B2, “Solution phase homogeneous assays” (Beckman Coulter, Inc., priority 2009, dated 2015)
